In the assay the target is inactive PAK I holoenzyme (p60) purified from rabbit reticulocytes (rabbit) (UniProt Q29502). Nature of the assay: cell-based or functional assay.

With “GST-Rac1 preloaded with GTPγS (from UniProt P63000 1-192)”, the stimulation relative to Cdc42Hs(GTPγS) amounted to 10 fold lower.

The values are drawn from patent US20020086390A1.
